Molecular target: T1, α2-Receptor (Rattus norvegicus, UniProt P22909)
T1 construct: the cortical tissue rapidly dissected; from tissue; host or cells: cortical tissue of male Wistar rats, washed membrane suspension
Assay: [^3 H]-Clonidine Binding: α2-Receptor
Design: species or system rat (male Wistar)
Conditions: rat cortical tissue; 3 nM [^3 H]-clonidine; 25° C., 20 min; Table 2

Protein sequences, listed by entry. Tags and fused reporters are not part of them.
UniProt P22909, whole entry: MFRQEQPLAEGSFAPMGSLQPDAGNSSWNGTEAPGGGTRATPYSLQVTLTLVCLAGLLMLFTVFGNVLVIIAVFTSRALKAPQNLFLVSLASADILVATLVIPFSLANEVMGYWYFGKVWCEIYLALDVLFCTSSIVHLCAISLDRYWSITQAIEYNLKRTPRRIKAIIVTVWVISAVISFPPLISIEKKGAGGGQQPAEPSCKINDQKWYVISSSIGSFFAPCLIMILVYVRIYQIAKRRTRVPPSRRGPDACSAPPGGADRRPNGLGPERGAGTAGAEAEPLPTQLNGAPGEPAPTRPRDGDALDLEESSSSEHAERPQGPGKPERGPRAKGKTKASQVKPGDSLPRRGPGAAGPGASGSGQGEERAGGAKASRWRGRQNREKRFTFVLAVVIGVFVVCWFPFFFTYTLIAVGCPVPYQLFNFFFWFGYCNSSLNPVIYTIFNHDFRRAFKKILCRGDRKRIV

Compound `CN(C)CCC=C1c2ccccc2CCc2ccccc21` [Amitriptyline] has an IC50 of 3.9 µM.

— US5246947A, “Substituted pyridinylamino-1,2-benzisothiazoles and their use for treating depression” (Hoechst-Roussel Pharmaceuticals Incorporated, priority 1992, dated 1993)
